# Laboratory results: US8912188B2, “Substituted quinoxaline carboxylic acids for the inhibition of PASK” (BioEnergenix, LLC, priority 2011, dated 2014)
# By UniProt entry, the sequences of proteins in these tests, tags left out. Residues count along the entry.
# UniProt Q96RG2, 879-1323, stated change not applied: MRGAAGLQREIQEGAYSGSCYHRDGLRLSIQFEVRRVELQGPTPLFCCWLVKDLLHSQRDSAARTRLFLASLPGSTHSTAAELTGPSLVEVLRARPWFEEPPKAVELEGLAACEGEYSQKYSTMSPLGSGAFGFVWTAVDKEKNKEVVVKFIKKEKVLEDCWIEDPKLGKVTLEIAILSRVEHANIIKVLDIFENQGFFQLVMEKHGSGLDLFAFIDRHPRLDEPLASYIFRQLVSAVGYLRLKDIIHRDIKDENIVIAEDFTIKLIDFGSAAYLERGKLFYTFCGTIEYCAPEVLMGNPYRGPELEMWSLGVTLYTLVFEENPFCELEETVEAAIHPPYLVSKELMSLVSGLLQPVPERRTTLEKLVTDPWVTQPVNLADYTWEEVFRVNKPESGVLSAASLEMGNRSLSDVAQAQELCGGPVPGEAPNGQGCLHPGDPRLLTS
# UniProt Q96RG2, 999-1251 limits assumed: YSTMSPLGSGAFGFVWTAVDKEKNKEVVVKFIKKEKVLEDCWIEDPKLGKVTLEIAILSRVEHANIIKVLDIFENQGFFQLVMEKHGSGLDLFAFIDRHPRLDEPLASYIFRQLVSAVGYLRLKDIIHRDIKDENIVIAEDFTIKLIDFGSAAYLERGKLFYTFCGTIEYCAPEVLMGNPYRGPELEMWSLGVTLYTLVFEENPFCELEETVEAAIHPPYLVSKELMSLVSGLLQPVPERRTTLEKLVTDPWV
# Experiments:
# [1] = target: T1, PASK (UniProt #Q96RG2; human recombinant N-terminal GST tagged construct, residues 879-1323) (Homo sapiens, UniProt Q96RG2); test: PASK ATP Radiochemical Assay; type: biochemical; conditions: 33P-ATP, Myelin Basic Protein substrate, 120 min at room temperature, read-out: IC50 Kinase Domain
# T1 construct: human recombinant N-terminal GST tagged construct, residues 879-1323; GST (N); host or cells: insect cells
# Description: (§1) Biochemical Assay for hPASK Activity
# PASK ATP Radiochemical Assay
# Test compounds in DMSO are then added and the mixture, followed by delivery of ^33P-ATP (specific activity 0.01 μCi/μl final) to initiate the reaction. […] The entire reaction mixture is washed through onto a P81 Phosphocellulose paper and washed three times for 10 minutes in 75 mM phosphoric acid and once in methanol prior to drying and scintillation counting.
# [2] = target: T2, PASK (Invitrogen) (Homo sapiens, UniProt Q96RG2); test: PAS Kinase FRET Assay; type: biochemical; conditions: PAS kinase TR-FRET assay (665 nm/615 nm), 2 hours at 25° C.; read-out: IC50 Kinase Domain
# T2 construct: IC50 Kinase Domain; purchased Invitrogen
# Description: as §1
# The aim of the FRET assay is to determine the inhibition potential of test compounds on targeted kinase. This assay platform provides a homogenous screening method for measuring kinase activity by quantitating the amount of phospho-substrate in solution following a kinase reaction.
# In the presence of kinase and ATP, the Ulight-peptide is phosphorylated and captured by an anti-phospho-substrate antibody, which brings the Eu chelate donor and Ulight acceptor dyes into close proximity.
# Titration of kinase at 1 mM ATP was achieved via the following protocol. […] The contents of the plate were incubated at RT for 1 h. The reaction was stopped by adding 5 μl of stop solution to each test well followed by mixing and incubation at RT for 10 minutes. 5 μl of detection mix (detection antibody diluted in detection buffer) was added; the contents of the plate were mixed and then incubated in the dark for 1 hour at RT. […] The results were graphed to calculate the EC50.
# Titration of ATP at the EC50 concentration of kinase to determine ATP Km,app. was performed using the following method. […] The contents of the plate were and incubated at RT for 1 h. The reaction was stopped by adding 5 μl of stop solution to each test well followed by mixing and incubation at RT for 10 minutes. […]
structure (smiles),measurement,setting,value
"C[C@@H]1CCCN1c1nc2cc(C(=O)O)ccc2nc1-c1ccc(F)cc1 [Example 150, (R)-2-(4-Fluorophenyl)-3-(2-methylpyrrolidin-1-yl)quinoxaline-6-carboxylic acid]",IC50,[1],< 10 µM
same,IC50,[2],< 10 µM
